Results: US20100099731A1, “Use of Endothelial Interrupters in the Treatment of Neurodegenerative Diseases” (Texas Tech University System, priority 2008, published 2010)

Test system: Rat neuronal cortical cell cultures
Conditions: thrombin 100 nM or SNP 10 μM, 24 h

sodium nitroprusside
neuronal apoptosis (nucleosome ELISA): evoke neuronal cell death
